Reference: IntAct's records for PubMed 35512704

B1: RAC-alpha serine/threonine-protein kinase (Homo sapiens), P31749 (parent)
chain: MSDVAIVKEGWLHKRGEYIKTWRPRYFLLKNDGTFIGYKERPQDVDQREAPLNNFSVAQCQLMKTERPRPNTFIIRCLQWTTVIERTFHVETPEEREEWTTAIQTVADGLKKQEEEEMDFRSGSPSDNSGAEEMEVSLAKPKHRVTMNEFEYLKLLGKGTFGKVILVKEKATGRYYAMKILKKEVIVAKDEVAHTLTENRVLQNSRHPFLTALKYSFQTHDRLCFVMEYANGGELFFHLSRERVFSEDRARFYGAEIVSALDYLHSEKNVVYRDLKLENLMLDKDGHIKITDFGLCKEGIKDGATMKTFCGTPEYLAPEVLEDNDYGRAVDWWGLGVVMYEMMCGRLPFYNQDHEKLFELILMEEIRFPRTLGPEAKSLLSGLLKKDPKQRLGGGSEDAKEIMQHRFFAGIVWQHVYEKKLSPPFKPQVTSETDTRYFDEEFTAQMITITPPDQDDSMECVDSERRPHFPQFSYSASGTA

Variants of: B1
Settings: with pax5_human PAX5, Q02548

| Variant | effect of a mutation on the interaction |
| --- | --- |
| E17K | with no effect |

Variants of: B1
Settings: with pax9_human PAX9, P55771

| Variant | effect of a mutation on the interaction |
| --- | --- |
| E17K | with no effect |

Variants of: B1
Settings: with pb1_human PBRM1

| Variant | effect of a mutation on the interaction |
| --- | --- |
| E17K | with no effect |

Variants of: B1
Settings: with pgfrb_human PDGFRB

| Variant | effect of a mutation on the interaction |
| --- | --- |
| E17K | with no effect |

Variants of: B1
Settings: with PIK3C2B

| Variant | effect of a mutation on the interaction |
| --- | --- |
| E17K | with no effect |

Variants of: B1
Settings: with pk3c3_human PIK3C3

| Variant | effect of a mutation on the interaction |
| --- | --- |
| E17K | with no effect |

Variants of: B1
Settings: with pk3cg_human PIK3CG

| Variant | effect of a mutation on the interaction |
| --- | --- |
| E17K | with no effect |

Variants of: B1
Settings: with p85a_human PIK3R1

| Variant | effect of a mutation on the interaction |
| --- | --- |
| E17K | with no effect |

Variants of: B1
Settings: with p85b_human PIK3R2, O00459

| Variant | effect of a mutation on the interaction |
| --- | --- |
| E17K | with no effect |

Variants of: B1
Settings: with dpod1_human POLD1, P28340

| Variant | effect of a mutation on the interaction |
| --- | --- |
| E17K | with no effect |

Variants of: B1
Settings: with 2aaa_human PPP2R1A

| Variant | effect of a mutation on the interaction |
| --- | --- |
| E17K | with no effect |

Variants of: B1
Settings: with aakb2_human PRKAB2, O43741

| Variant | effect of a mutation on the interaction |
| --- | --- |
| E17K | with no effect |

Variants of: B1
Settings: with prss8_human PRSS8, Q16651

| Variant | effect of a mutation on the interaction |
| --- | --- |
| E17K | with no effect |

Variants of: B1
Settings: with tf65_human RELA

| Variant | effect of a mutation on the interaction |
| --- | --- |
| E17K | with no effect |

Variants of: B1
Settings: with rit1_human RIT1

| Variant | effect of a mutation on the interaction |
| --- | --- |
| E17K | with no effect |

Variants of: B1
Settings: with rnf43_human RNF43, Q68DV7

| Variant | effect of a mutation on the interaction |
| --- | --- |
| E17K | with no effect |

Variants of: B1
Settings: with ros1_human ROS1, P08922

| Variant | effect of a mutation on the interaction |
| --- | --- |
| E17K | with no effect |

Variants of: B1
Settings: with rs15_human RPS15

| Variant | effect of a mutation on the interaction |
| --- | --- |
| E17K | with no effect |

Variants of: B1
Settings: with rs2_human RPS2

| Variant | effect of a mutation on the interaction |
| --- | --- |
| E17K | with no effect |

Variants of: B1
Settings: with ruvb1_human RUVBL1

| Variant | effect of a mutation on the interaction |
| --- | --- |
| E17K | with no effect |

Variants of: B1
Settings: with setbp_human SETBP1, Q9Y6X0

| Variant | effect of a mutation on the interaction |
| --- | --- |
| E17K | with no effect |

Variants of: B1
Settings: with sf3b1_human SF3B1, O75533

| Variant | effect of a mutation on the interaction |
| --- | --- |
| E17K | with no effect |

Variants of: B1
Settings: with xct_human SLC7A11, Q9UPY5

| Variant | effect of a mutation on the interaction |
| --- | --- |
| E17K | with no effect |

Variants of: B1
Settings: with smad1_human SMAD1, Q15797

| Variant | effect of a mutation on the interaction |
| --- | --- |
| E17K | with no effect |

Variants of: B1
Settings: with smad2_human SMAD2, Q15796

| Variant | effect of a mutation on the interaction |
| --- | --- |
| E17K | with no effect |

Variants of: B1
Settings: with smad3_human SMAD3, P84022

| Variant | effect of a mutation on the interaction |
| --- | --- |
| E17K | with no effect |

Variants of: B1
Settings: with smo_human SMO

| Variant | effect of a mutation on the interaction |
| --- | --- |
| E17K | with no effect |

Variants of: B1
Settings: with socs1_human SOCS1, O15524

| Variant | effect of a mutation on the interaction |
| --- | --- |
| E17K | with no effect |

Variants of: B1
Settings: with sox10_human SOX10, P56693

| Variant | effect of a mutation on the interaction |
| --- | --- |
| E17K | with no effect |

Variants of: B1
Settings: with sox2_human SOX2, P48431

| Variant | effect of a mutation on the interaction |
| --- | --- |
| E17K | with no effect |

Variants of: B1
Settings: with sox3_human SOX3, P41225

| Variant | effect of a mutation on the interaction |
| --- | --- |
| E17K | with no effect |

Variants of: B1
Settings: with sox9_human SOX9, P48436

| Variant | effect of a mutation on the interaction |
| --- | --- |
| E17K | with no effect |

Variants of: B1
Settings: with spop_human SPOP

| Variant | effect of a mutation on the interaction |
| --- | --- |
| E17K | with no effect |

Variants of: B1
Settings: with src_human SRC

| Variant | effect of a mutation on the interaction |
| --- | --- |
| E17K | with no effect |

Variants of: B1
Settings: with stat3_human STAT3, P40763

| Variant | effect of a mutation on the interaction |
| --- | --- |
| E17K | with no effect |

Variants of: B1
Settings: with whr1_human WHR1, P49842

| Variant | effect of a mutation on the interaction |
| --- | --- |
| E17K | with no effect |

Variants of: B1
Settings: with ksyk_human SYK

| Variant | effect of a mutation on the interaction |
| --- | --- |
| E17K | with no effect |

Variants of: B1
Settings: with tfe2_human TCF3, P15923

| Variant | effect of a mutation on the interaction |
| --- | --- |
| E17K | with no effect |

Variants of: B1
Settings: with tead1_human TEAD1

| Variant | effect of a mutation on the interaction |
| --- | --- |
| E17K | with no effect |

Variants of: B1
Settings: with tead3_human TEAD3, Q99594

| Variant | effect of a mutation on the interaction |
| --- | --- |
| E17K | with no effect |

Variants of: B1
Settings: with tet2_human TET2, Q6N021

| Variant | effect of a mutation on the interaction |
| --- | --- |
| E17K | with no effect |

Variants of: B1
Settings: with tgfr2_human TGFBR2, P37173

| Variant | effect of a mutation on the interaction |
| --- | --- |
| E17K | with no effect |

Variants of: B1
Settings: with ti17a_human TIMM17A

| Variant | effect of a mutation on the interaction |
| --- | --- |
| E17K | with no effect |

Variants of: B1
Settings: with TMEM106B

| Variant | effect of a mutation on the interaction |
| --- | --- |
| E17K | with no effect |

Variants of: B1
Settings: with tnfa_human TNF

| Variant | effect of a mutation on the interaction |
| --- | --- |
| E17K | with no effect |

Variants of: B1
Settings: with vegfa_human VEGFA

| Variant | effect of a mutation on the interaction |
| --- | --- |
| E17K | with no effect |

Variants of: B1
Settings: with wt1_human WT1, P19544

| Variant | effect of a mutation on the interaction |
| --- | --- |
| E17K | with no effect |

Variants of: B1
Settings: with xirp2_human XIRP2, A4UGR9

| Variant | effect of a mutation on the interaction |
| --- | --- |
| E17K | with no effect |

Variants of: B1
Settings: with 1433e_human YWHAE

| Variant | effect of a mutation on the interaction |
| --- | --- |
| E17K | with no effect |

Variants of: B1
Settings: with zn217_human ZNF217, O75362

| Variant | effect of a mutation on the interaction |
| --- | --- |
| E17K | with no effect |

Variants of: B1
Settings: with pcbp1_human PCBP1

| Variant | effect of a mutation on the interaction |
| --- | --- |
| E17K | disrupting interaction strength |

Variants of: B1
Settings: with arnt_human ARNT

| Variant | effect of a mutation on the interaction |
| --- | --- |
| E17K | causing an interaction |

Variants of: B1
Settings: with arc1a_human ARPC1A

| Variant | effect of a mutation on the interaction |
| --- | --- |
| E17K | causing an interaction |

Variants of: B1
Settings: with arrb2_human ARRB2

| Variant | effect of a mutation on the interaction |
| --- | --- |
| E17K | causing an interaction |

Variants of: B1
Settings: with aurkb_human AURKB

| Variant | effect of a mutation on the interaction |
| --- | --- |
| E17K | causing an interaction |

Variants of: B1
Settings: with axin2_human AXIN2

| Variant | effect of a mutation on the interaction |
| --- | --- |
| E17K | causing an interaction |

Variants of: B1
Settings: with bard1_human BARD1, Q99728

| Variant | effect of a mutation on the interaction |
| --- | --- |
| E17K | causing an interaction |

Variants of: B1
Settings: with bcor_human BCOR

| Variant | effect of a mutation on the interaction |
| --- | --- |
| E17K | causing an interaction |
